Data: ChEMBL document CHEMBL1130899, “Development of dual-acting agents for thromboxane receptor antagonism and thromboxane synthase inhibition. 2. Design, synthesis, and evaluation of a novel series of phenyl oxazole derivatives” (Bioorg Med Chem Lett, 1998)

Biological target: T1, Thromboxane A2 receptor (Homo sapiens, UniProt P21731)
T1 sequence (P21731 whole entry): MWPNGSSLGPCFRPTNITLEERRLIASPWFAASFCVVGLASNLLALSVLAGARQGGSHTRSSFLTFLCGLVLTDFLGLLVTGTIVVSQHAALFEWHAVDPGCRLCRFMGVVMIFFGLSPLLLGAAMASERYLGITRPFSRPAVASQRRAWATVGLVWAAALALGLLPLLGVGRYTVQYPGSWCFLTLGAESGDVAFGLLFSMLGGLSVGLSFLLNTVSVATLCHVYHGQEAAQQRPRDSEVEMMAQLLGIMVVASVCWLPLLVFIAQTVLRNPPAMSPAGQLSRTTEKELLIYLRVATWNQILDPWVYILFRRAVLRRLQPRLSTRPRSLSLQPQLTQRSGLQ
Test: In vitro thromboxane receptor antagonism was determined using a human platelet binding assay

## O=C(O)CCCC/C=C(/c1ccc(C2=N[C@@H](C(=O)NCCCCC3CCCCC3)CO2)cc1)c1cccnc1
  Kd: 51.6 nM
